Results taken from patent US9125915B2, “Antitumor agent” (Mitsubishi Tanabe Pharma Corporation, priority 2007, dated 2015).

Chains of the proteins cited; added tags and fusions are not shown.
UniProt P25440, whole entry: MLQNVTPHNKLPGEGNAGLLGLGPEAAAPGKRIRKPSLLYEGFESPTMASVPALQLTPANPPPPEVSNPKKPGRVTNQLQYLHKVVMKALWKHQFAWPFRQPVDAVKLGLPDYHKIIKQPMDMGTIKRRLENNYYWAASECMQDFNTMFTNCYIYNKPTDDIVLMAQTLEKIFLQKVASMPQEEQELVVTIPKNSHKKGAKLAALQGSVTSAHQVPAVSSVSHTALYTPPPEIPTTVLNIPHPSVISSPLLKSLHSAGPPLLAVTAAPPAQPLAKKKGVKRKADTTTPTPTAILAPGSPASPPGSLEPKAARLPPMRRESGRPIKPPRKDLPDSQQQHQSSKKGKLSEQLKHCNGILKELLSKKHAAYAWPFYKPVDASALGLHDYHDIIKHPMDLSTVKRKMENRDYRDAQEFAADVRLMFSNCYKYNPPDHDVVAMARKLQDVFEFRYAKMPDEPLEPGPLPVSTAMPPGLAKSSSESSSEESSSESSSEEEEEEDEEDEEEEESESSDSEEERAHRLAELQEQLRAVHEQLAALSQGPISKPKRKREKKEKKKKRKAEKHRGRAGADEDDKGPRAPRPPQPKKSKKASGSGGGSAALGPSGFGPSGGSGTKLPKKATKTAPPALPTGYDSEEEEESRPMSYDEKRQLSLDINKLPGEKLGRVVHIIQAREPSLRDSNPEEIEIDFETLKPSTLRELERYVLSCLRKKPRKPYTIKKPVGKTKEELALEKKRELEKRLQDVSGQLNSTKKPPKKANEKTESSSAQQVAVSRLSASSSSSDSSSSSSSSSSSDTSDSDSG

Molecular target: BRD2 (Homo sapiens (Human), UniProt P25440)
Assay: Binding inhibitory test of acetylated histone H4 and BRD2 (TR-FRET)
Details: CHO cell lysate with Flag-BRD2, biotin-labeled acetylated histone H4 peptide
Protocol: An expression vector containing cDNA of BRD2, 3 and 4 added with Flag-tag was transfected to CHO cell, and a cell lysate was prepared 24 hr later. Binding of acetylated histone H4 and BRD was confirmed by a Time Resolved Fluorescence Resonance Energy Transfer (TR-FRET) method. To a 384-well white plate (manufactured by Coaster) were added 50 nmol/L biotin-labeled acetylated histone H4 peptide (manufactured by Upstate) and a serially diluted test compound.

IC50: 0.0555 µM
Structure (SMILES): Cc1sc2c(c1C)C(c1ccc(Cl)cc1)=N[C@@H](CC(=O)Nc1ccc(O)cc1)c1nnc(C)n1-2 [Compound 1, (S)-2-[4-(4-chlorophenyl)-2,3,9-trimethyl-6H-thieno[3,2-f][1,2,4]triazolo[4,3-a][1,4]diazepin-6-yl]-N-(4-hydroxyphenyl)acetamide]
